Tests used:
[1] = target: T1, human OGF receptor (OGFr), native, in nuclear preparations of human cells and tissues (human, UniProt Q9NZT2 1-662, limits assumed); assay: saturation binding, post-confluent PANC-1 cells
T1 construct: Native receptor in nuclear homogenates (placenta, PANC-1, MIA PaCa-2, Capan-1, BxPC-3, pancreatic tissue, head and neck tissue); also called zeta opioid receptor; receptor for OGF
T1 chain: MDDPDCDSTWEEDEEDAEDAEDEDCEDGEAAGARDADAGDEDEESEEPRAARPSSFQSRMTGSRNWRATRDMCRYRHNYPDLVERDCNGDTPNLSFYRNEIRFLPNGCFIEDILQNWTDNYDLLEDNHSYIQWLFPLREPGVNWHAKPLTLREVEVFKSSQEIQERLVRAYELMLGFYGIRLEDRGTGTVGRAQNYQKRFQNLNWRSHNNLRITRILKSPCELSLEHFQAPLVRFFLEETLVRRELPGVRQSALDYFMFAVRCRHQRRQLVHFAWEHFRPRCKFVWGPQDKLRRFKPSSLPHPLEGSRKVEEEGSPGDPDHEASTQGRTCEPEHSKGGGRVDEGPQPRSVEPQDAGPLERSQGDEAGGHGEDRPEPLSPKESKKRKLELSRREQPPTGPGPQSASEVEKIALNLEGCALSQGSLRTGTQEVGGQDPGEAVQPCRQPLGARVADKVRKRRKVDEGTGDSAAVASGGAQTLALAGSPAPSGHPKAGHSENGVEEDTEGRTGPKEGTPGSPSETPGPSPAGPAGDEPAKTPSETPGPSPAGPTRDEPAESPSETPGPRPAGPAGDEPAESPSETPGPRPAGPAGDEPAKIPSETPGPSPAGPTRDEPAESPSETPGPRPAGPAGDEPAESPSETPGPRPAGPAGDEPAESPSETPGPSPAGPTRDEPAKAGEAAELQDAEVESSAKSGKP

Chains of the proteins cited; added tags and fusions are not shown. Lines headed by an entry give the natural chain unless they say otherwise; changes in a name come on top.
UniProt P01210: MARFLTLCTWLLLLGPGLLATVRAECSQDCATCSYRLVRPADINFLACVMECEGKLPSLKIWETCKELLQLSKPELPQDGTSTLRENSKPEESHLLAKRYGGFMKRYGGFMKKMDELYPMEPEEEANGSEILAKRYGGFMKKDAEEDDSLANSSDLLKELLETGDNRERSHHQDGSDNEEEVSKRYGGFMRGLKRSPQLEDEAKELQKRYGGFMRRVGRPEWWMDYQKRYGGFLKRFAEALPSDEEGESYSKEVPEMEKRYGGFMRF

[2] = target: T1, human OGF receptor (OGFr), native, in …; assay: saturation binding, nuclear (P1) fraction of PANC-1 cells, subcellular fractionation study
[3] = target: T1, human OGF receptor (OGFr), native, in …; assay: unlabeled peptide competing with [3H]-[Met5]-enkephalin, PANC-1 nuclear homogenates
[4] = target: T1, human OGF receptor (OGFr), native, in …; assay: radioligand binding, nuclear preparations of human head and neck squamous cell carcinoma
[5] = target: T1, human OGF receptor (OGFr), native, in …; assay: radioligand binding, nuclear preparations of normal human mucosa
[6] = target: T1, human OGF receptor (OGFr), native, in …; assay: saturation binding, PANC-1 cells in log phase
[7] = target: T1, human OGF receptor (OGFr), native, in …; assay: saturation binding, confluent PANC-1 cells
[8] = target: T1, human OGF receptor (OGFr), native, in …; assay: saturation binding, xenografts of Capan-1 grown in nude mice

B1: [Met^5]-enkephalin (opioid growth factor) (peptide, UniProt P01210 100-104, looked up)
peptide: YGGFM
modifications: tritium label ([^3H]) on the radioligand; the unlabeled peptide is used as competitor
notes: domain: [Met^5]-enkephalin; only the pentapeptide stood in the assay; also called OGF; [^3H]-[Met^5]-enkephalin
Q: What does the source list for B1?
A: Kd [1]: 13.1 nM; Kd [2]: 2.3 nM; IC50 [3]: 5.5 nM; Kd [4]: 4.1 nM; Kd [5]: 11.6 nM; Kd [6]: 4.2 nM; Kd [7]: 5.3 nM; Kd [8]: 2.9 nM

From patent US20080050363A1 (published 2008)
